The test concerns the target T1, p53-RAR (Homo sapiens, UniProt P10276).
T1 construct: fused on or other part: The p53 tetramerization domain sits N-terminal to whole RAR alpha; It is counted as the second part of the chimera
Kind of test: RA sensitivity of transcriptional repression, RARE-containing reporter. The conditions noted are these: repression by p53-RAR on a RARE-containing reporter. The format is cell-based.

Chains of the proteins cited; added tags and fusions are not shown.
UniProt P10276, whole entry: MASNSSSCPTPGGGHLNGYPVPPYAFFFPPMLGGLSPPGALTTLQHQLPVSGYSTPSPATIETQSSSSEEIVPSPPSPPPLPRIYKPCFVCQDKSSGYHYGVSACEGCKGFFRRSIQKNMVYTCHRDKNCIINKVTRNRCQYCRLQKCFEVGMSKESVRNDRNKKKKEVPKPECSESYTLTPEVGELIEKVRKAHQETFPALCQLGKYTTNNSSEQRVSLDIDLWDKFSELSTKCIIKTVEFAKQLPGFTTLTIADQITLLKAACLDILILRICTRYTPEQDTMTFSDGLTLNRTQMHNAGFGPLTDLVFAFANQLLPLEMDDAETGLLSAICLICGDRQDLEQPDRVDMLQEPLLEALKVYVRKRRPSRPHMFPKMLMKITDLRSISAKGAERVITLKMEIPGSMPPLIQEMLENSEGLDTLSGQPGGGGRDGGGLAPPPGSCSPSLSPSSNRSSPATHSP

The values that follow come from patent US20030207791A1, “Materials and methods relating to the treatment of leukaemias” (priority 2000, published 2003).

On to `CC1=C(/C=C/C(C)=C\C=C\C(C)=C\C(=O)O)C(C)(C)CCC1` [9-cis-RA], for which the “relief of transcriptional repression by RAR ligand” value is listed as “identical results”.
